Laboratory results from patent US20150320795A1, “COMPOSITIONS AND METHODS COMPRISING POLYETHYLENE GLYCOL AND MAGNESIUM FOR TREATMENT OF NEURONAL INJURY” (priority 2012, published 2015).

Details: healthy subjects

## O=S(=O)([O-])[O-].[Mg+2] [MgSO4, magnesium sulfate]
  systemic exposure relative to total dose: proportionate to total dose
